Values of other authors as cited in publication PMC9781087, “Discovery of New Microbial Collagenase Inhibitors” (Life, 2022).

System: normal fibrobast cells
Details: 1 μM concentration; cited from earlier work

O=C1C=CC(=O)c2c(O)cccc21 [Juglone, juglone]
toxicity on normal fibroblast cells: no significant effect
